Data from US20070218117A1, “Supra molecular construct for delivery of interferon to a mammal” (SDG, Inc., priority 2006, published 2007).

Columns and labels:
[1] = tested on: double stranded RNA dependent protein kinase (PKR) gene; experiment: Induction of PKR mRNA in liver and spleen of mice after subcutaneous dosing, real time quantitative PCR; format: in vivo, mouse (C57B16 mice)
Experimental: The efficacy of HDV-interferon alpha was evaluated in a mouse model having a genetic marker response to the hepatic effect of interferon. C57B16 mice were obtained from Jackson Laboratory and a breeding colony was established at Cleveland MetroHealth Center, Cleveland, Ohio. Mice were obtained from the breeding colony. Two groups of mice, a test group and a control group, were treated. The test group received Interferon+HDV, while the control group received Interferon alone. HDV-Interferon comprised 100 mcg HDV to 10 mcg Interferon alpha. HDV was supplied by Hepasome Pharmaceuticals and Roeferon was the source of the interferon alpha. The HDV and interferon alpha were allowed to equilibrate for 12 hours prior to injection into the mice. Mice from both groups were dosed with 100,000 U/kg body wt. To test the timing of response to IFN, Roferon was subcutaneously injected into the mice. The mice were sacrificed at 6 hours after dosing. The spleen and liver of the sacrificed rats were obtained for analysis. […] The assay used real time quantitative PCR (polymerase chain reaction) to assay the level of PKR messenger ribonucleic acid (mRNA). […] The produced cDNAs were subjected to semi-quantitative PCR, the 6 hour time point was selected for the HDV experiments. […] Real time quantitative PCR was performed on the produced cDNAs using cybr green technology. […]

hepatitis C virus = settings: chronic hepatitis C; treatment with interferon alone; cited from earlier work

interferon alpha: Roeferon was the source of the interferon alpha; control group received Interferon alone
relative expression level in the spleen compared to the relative expression level in the liver ([1]; PKR mRNA, mice dosed 100,000 U/kg subcutaneously, sacrificed at 6 hours, FIG. 12a): approximately twice | increase in PKR activation relative to a baseline ([1]; hepatic PKR activation, mouse model, FIG. 13): ~5 fold | sustained response, share of subjects (hepatitis C virus): less than 15%
